Earlier results, collected in PMC10531186.

Target: chymotrypsin (Bos taurus) (UniProt P00766)
Assay: given as Ka

BPTI (from UniProt P00974)
Kd: 58.8 nM
